According to patent US20220143198A1, “COMPOSITIONS AND METHODS RELATED TO TETHERED KETHOXAL DERIVATIVES” (The University of Chicago, priority 2019, published 2022):

Legend:
guanines on RNA = assay: MALDI-TOF analysis of RNA oligos reacted with N3-kethoxal; conditions: for Labelling of RNA oligo: mass spectrum
single-stranded RNA = assay: Denaturing gel electrophoresis, selectivity for single-stranded RNA
[1] = system: N3-kethoxal labelled mRNA; assay: Dot blot analysis of reversibility of N3-kethoxal labelled mRNA with GTP; conditions: 50 mM GTP at 95° C., 10 mins incubation
mES cells = assay: Dot blot of total RNA from mES cells treated with N3-kethoxal (cell permeability)
guanosine [2] = assay: Reactivity of kethoxal derivatives with guanosine (conversion rates of guanosine); assay type: biochemical
guanosine [3] = assay: Reversibility of kethoxal derivatives by adjusting pH (kethoxal-guanosine adduct dissociation); assay type: physicochemical
guanosine [4] = assay: Reversibility of kethoxal derivatives using GTP for competition (LCMS of free guanosine); assay type: physicochemical; conditions: 1:1 ratio

Q: What does the source list for “3-(2-azidoethoxy)-1,1-dihydroxybutan-2-one”?
A: Labelling of guanines on RNA (guanines on RNA; MALDI-TOF analysis): efficiently labels guanines on RNA; Reactivity on other bases (guanines on RNA; MALDI-TOF analysis): no reactivity was observed on other bases; Labelling of RNA oligo (guanines on RNA; RNA 1 with four guanines): all guanines and only guanine were labelled; Labelling of RNA oligo (guanines on RNA; RNA 2 without guanine): no N3-kethoxal labelling was observed; Gel shift (formation of RNA-kethoxal complex) (single-stranded RNA; double-stranded RNA): no such shift was detected; Gel shift (formation of RNA-kethoxal complex) (single-stranded RNA; single-stranded RNA): a shift was observed; Removal of N3-kethoxal modification in mRNA [1]: removed thoroughly; Time to label DNA and RNA in living cells (mES cells): ≤ 5 min; Cell permeability (mES cells; living cells): highly cell-permeable

Q: For `[N-]=[N+]=NCC(=O)C=O`, which “Conversion rate of guanosine” value (guanosine [2]; pH = 7.0, S1:S2 = 1:1) is on record?
A: Its value is 33.7%.

Q: And the “Conversion rate of guanosine” value (guanosine [2]; pH = 7.0, S1:S2 = 1:2)?
A: The value was 55.4%.

Q: What about the “Conversion rate of guanosine” value (guanosine [2]; pH = 7.0, S1:S2 = 1:4) of the same molecule?
A: The value was 76.3%.

Q: What about the “Conversion rate of guanosine” value (guanosine [2]; pH = 7.0, S1:S2 = 2:1) of the same molecule?
A: Its value is 16.8%.

Q: And the “Conversion rate of guanosine” value (guanosine [2]; pH = 7.8, S1:S2 = 1:1)?
A: Its value is 60.4%.

Q: What about the “Conversion rate of guanosine” value (guanosine [2]; pH = 7.8, S1:S2 = 1:2) of the same molecule?
A: The value was 79.4%.

Q: What about the “Conversion rate of guanosine” value (guanosine [2]; pH = 7.8, S1:S2 = 1:3) of the same molecule?
A: The value was 85.4%.

Q: And the “Conversion rate of guanosine” value (guanosine [2]; pH = 7.8, S1:S2 = 2:1 (S1 guanosine, S2 kethoxal derivative))?
A: The value was 33.4%.

Q: And the Conversion of guanosine (guanosine [3]; pH = 5.8, 10 min after adjusting from pH 10.1, 1:1 ratio)?
A: Its Conversion of guanosine is 23.8%.

Q: And the Conversion of guanosine (guanosine [3]; pH = 5.8, 4 h after adjusting from pH 10.1, 1:1 ratio)?
A: The Conversion of guanosine was 21.6%.

Q: And the Conversion of guanosine (guanosine [3]; pH = 5.8, 24 h after adjusting from pH 10.1, 1:1 ratio)?
A: The Conversion of guanosine was 20.8%.

Q: What about the Conversion of guanosine (guanosine [3]; pH = 10.1, 10 min, kethoxal derivative and guanosine 1:1) of the same molecule?
A: Its Conversion of guanosine is 24.5%.

Q: What about the “Conversion of guanosine under competition condition” value (guanosine [4]; pH = 7.0, 10 min, excess GTP added after 10 min) of the same molecule?
A: Its value is 34.6%.

Q: And the “Conversion of guanosine under competition condition” value (guanosine [4]; pH = 7.0, 2 h, excess GTP competitor)?
A: Its value is 24.8%.

Q: What about the “Conversion of guanosine under competition condition” value (guanosine [4]; pH = 7.0, 24 h, excess GTP competitor) of the same molecule?
A: Its value is 12.4%.
